Measured values from patent US20240181072A1, “Anti-HER2 Antibody-Immune Agonist Conjugate and Applications Thereof” (GENEQUANTUM HEALTHCARE (SUZHOU) CO., LTD., priority 2021, published 2024).

How the values were obtained:
[1] = test system: NCI N87 human gastric cancer cells; assay: In vivo anti-tumor efficacy, NCI N87 CDX model in SCID Beige mice; conditions: 5 mg/kg intravenously, subcutaneous NCI N87 tumors, start at 173 mm^3 on average (FIG. 7)
Procedure: For in vivo anti-tumor efficacy study, 1×10^7 NCI N87 human gastric cancer cells were inoculated subcutaneously in the right flank in SCID Beige mice. After 6 days, when tumor volume reached 173 mm^3 on average, the tumor bearing mice were assigned and administered intravenously of Ab0001 or the test immunoconjugate (AC102-5-1-1 or AC102-6-1-1) at 5 mg/kg. The tumor volume was measured twice weekly with calipers.

[2] = test system: MC38^hHER2 murine colorectal cancer cells overexpressing human HER2; assay: In vivo anti-tumor efficacy, MC38 hHER2 model in C57BL/6 mice; conditions: 10 mg/kg intravenously, subcutaneous MC38 hHER2 tumors, start at 90 mm^3 on average (FIG. 8)
Description: 5×10^5 MC38^hHER2 murine colorectal cancer cells overexpressing human HER2 were inoculated subcutaneously in the right flank in C57BL/6 mice. After 8 days, when tumor volume reached 90 mm^3 on average, the tumor bearing mice were assigned and administered intravenously of Ab0001 or AC102-6-1-1.

Substance: Trastuzumab [Ab0001]
- anti-tumor activity (tumor volume) [1]: very limited anti-tumor activity
- anti-tumor activity (tumor volume) [2]: no obvious anti-tumor activity
